Laboratory results as given in PMC6421407, “Activation of GCN2 by the ribosomal P-stalk” (Proceedings of the National Academy of Sciences of the …, 2019).

Target: human general control nonderepressible 2 (GCN2), full-length, StrepII-tagged (human) (UniProt Q9P2K8)

EC50 for activation of GCN2-mediated phosphorylation of eIF2α, titration of the P-stalk complex: 250 nM
fold increase in GCN2 activity (eIF2α phosphorylation) at the highest P-stalk concentration measured (2.5 μM): 40 fold
Substance: recombinant human P-stalk complex, full-length (uL10/P1/P2 heteropentamer: uL10 bound to two P1-P2 heterodimers) (from UniProt P05388 1-317; P05386 1-114; P05387 1-115)
